Among the data in ChEMBL document CHEMBL4261646, “Bisphosphonate Inhibitors of Mammalian Glycolytic Aldolase” (J Med Chem, 2018) are Km values, retold here.

This assay is filed under the species Homo sapiens.

A word on the Km: it is the concentration of substrate that gives half-maximal velocity. Take `O=P([O-])([O-])Oc1ccc2cc(C(P(=O)([O-])[O-])P(=O)([O-])[O-])ccc2c1.[Li+].[Li+].[Li+].[Li+].[Li+].[Li+]`: the Km amounted to 2.7 µM.
